Earlier results on one compound are cited in US20070281983A1, “Creatine analog prodrugs, compositions and uses thereof” (XenoPort, Inc., priority 2006, published 2007).

For this series the following is noted: ALS.

For the compound `Nc1nc2ccc(OC(F)(F)F)cc2s1` [riluzole], the extension of survival entry is on record as “about three”.
